The values below come from patent US20090053213A1 (MorphoSys, published 2009).

Sequences of proteins named here, by UniProt entry; tags and fusion partners are left off. Residues count along the entry.
UniProt P04141, 18-144: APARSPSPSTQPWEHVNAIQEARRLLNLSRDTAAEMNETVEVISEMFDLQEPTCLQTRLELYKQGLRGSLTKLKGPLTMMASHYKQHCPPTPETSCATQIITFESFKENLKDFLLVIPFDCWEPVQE

For orientation: IC50 means the midpoint of a concentration-inhibition curve. High values mean weaker potency, low ones greater potency. As usually defined, the Kd is a measure of binding affinity in units of concentration. In general, % inhibition refers to the percentage by which the read-out fell short of the control. Lower therefore signals a weak effect.

Assay [1] addresses T1, human GM-CSF (human, UniProt P04141 18-144). The assay is described as follows: cell-based or functional assay.
In assay [2] the target is T1, human GM-CSF. Briefly: FACS receptor inhibition assay: antibody pre-incubated with 0.5 µg/ml biotinylated GM-CSF, binding to GM-CSF receptor alpha on CHO-GMRa#11 cells.
The target of assay [3] is T1, human GM-CSF. Briefly: cell-based or functional assay. The source holds these as a separate data set.
Assay [4] has as its target T1, human GM-CSF. The assay is described as follows: solution equilibrium titration (SET, ECL/BioVeris), Fab with human GM-CSF (Leucomax) in solution.
Assay [5] deals with T1, human GM-CSF. Briefly: FACS receptor inhibition assay: inhibition of binding of 0.5 µg/ml biotinylated GM-CSF to GM-CSF receptor alpha on CHO-GMRa#11 cells.
Assay [6] has as its target T1, human GM-CSF. The assay is described as follows: SPR (Biacore), Fab over immobilized recombinant human GM-CSF (Peprotech), F1 chip; affinity estimated from off-rates.
Assay [7] has as its target T1, human GM-CSF. Briefly: solution equilibrium titration (SET, ECL), IgG1 with human recombinant GM-CSF in solution.
Assay [8] has as its target T1, human GM-CSF. Briefly: cell-based or functional assay. The source holds these as a separate data set.

B1: MOR04357 Fab (Fab, V domains shown)
VH: QVQLVESGGGLVQPGGSLRLSCAASGFTFSSYWMNWVRQAPGKGLEWVSGIENKYAGGATYYAASVKGRFTISRDNSKNTLYLQMNSLRAEDTAVYYCARGFGTDFWGQGTLVTVSS
VL: DIELTQPPSVSVAPGQTARISCSGDSIGKKYAYWYQQKPGQAPVLVIYKKRPSGIPERFSGSNSGNTATLTISGTQAEDEADYYCSAWGDKGMVFGGGTKLTVLG
notes: X-cloned Fab (VH of MOR04252 x VL of MOR04302) with FLAG and 6xHis tags; also called Fab MOR04357
On to B1, for which, in the assay with human GM-CSF [1], the “IC50 (pM) in TF-1 proliferation assay, human GM-CSF 0.25 ng/ml” value came out at 90 pM; the “IC50 x-fold improved compared to BVD2-21C11, TF-1 proliferation assay” value stood at 72.9 fold; the “IC50 x-fold improved compared to Mab215, TF-1 proliferation assay” value stood at 47.9 fold. Moreover, in the assay with human GM-CSF [2], the IC50 amounted to 26000 pM. For the same molecule, the “fold improvement of IC50 in TF-1 proliferation assay compared to parental MOR03929” value with human GM-CSF [3] is over 2000 fold. Further, binding with human GM-CSF [4] was put at a Kd of 0.4 pM. Further, the “% inhibition at 5 µg/ml antibody” value in the assay with human GM-CSF [5] is about 75%. In addition, the dissociation constant (Kd) in the assay with human GM-CSF [6] was 7 pM.

B2: MOR04357 IgG1 (antibody, V domains shown)
VH: QVQLVESGGGLVQPGGSLRLSCAASGFTFSSYWMNWVRQAPGKGLEWVSGIENKYAGGATYYAASVKGRFTISRDNSKNTLYLQMNSLRAEDTAVYYCARGFGTDFWGQGTLVTVSS
VL: DIELTQPPSVSVAPGQTARISCSGDSIGKKYAYWYQQKPGQAPVLVIYKKRPSGIPERFSGSNSGNTATLTISGTQAEDEADYYCSAWGDKGMVFGGGTKLTVLG
notes: expressed in HKB11 cells; also called IgG1 MOR04357
In the case of B2, in the assay with human GM-CSF [7], the equilibrium dissociation constant (Kd) is 1.1 pM. Moreover, in the assay with human GM-CSF [8], the “IC50 (pM) in TF-1 proliferation assay, human GM-CSF (E. coli)” value turned out to be 48 pM and the “IC50 (pM) in TF-1 proliferation assay, human GM-CSF (HEK293)” value was found to be 11 pM. In addition, in the assay with human GM-CSF [3], the “fold improvement of IC50 in TF-1 proliferation assay compared to Fab MOR03929” value was over 2000 fold.
